Compound activity as filed in PubChem BioAssay.
Hits are enriched below; roughly 2.8% of the tested compounds scored in any of these assays.
MITF TRPM1 HTS: activators of MITF-driven TRPM1 promoter reporter, primary screen, cell-based, SK-MEL-5, luciferase, single point; SK-MEL-5 TRPM1-promoter luciferase, 24 h; % of positive control, neutral wells = 0; activation, % at 12.5 µM; hit rate 0.75% among 300,000; AID 588334, 2011;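 active = mean activation of at least 80% with every replicate also reaching 80%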
PglD DTNB: C. jejuni PglD acetyltransferase inhibitors, primary screen, biochemical, DTNB colorimetric, single point | inhibition, % at 12.5 µM | hit rate 0.098% among 360,000 | purified PglD enzyme, DTNB colorimetric CoA detection | UDP-N-acetylbacillosamine N-acetyltransferase PglD (Campylobacter jejuni); in the data active = inhibition above about 16%, passing the limit was not always enough
esBAF inh: Bmi1 luciferase reporter increase in mESCs, primary screen, esBAF inhibitor project, mouse ES cells, Bmi1 luciferase knock-in, single point; reporter increase, % at 12.5 µM; 24 h; 100% = twice the neutral-well signal; hit rate 2% among 350,000; in the data active = activation above about 40%;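 note: a rise in the Bmi1 reporter signal indicates esBAF inhibition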
miR122 inh: miR-122 Renilla sensor signal increase in Huh7, primary screen, miR-122 inhibitor project, cell-based, single point, plate reader | activation (reporter increase), % at 12.5 µM | AID 602342, 2012 | Huh7 miR-122 Renilla luciferase sensor, 48 h; neutral wells = 0, positive control = 100 | hit rate 0.3% among 340,000;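 active = mean replicate activation score at least 90 and every replicate individually at or above 90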;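 note: higher luciferase means less miR-122 activity so hits act as miR-122 inhibitors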
Wnt act: Wnt/beta-catenin pathway activators, primary screen, cell-based, plate reader, single point. Wnt/beta-catenin reporter cell assay, activator. activation, % at 9.35 µM. hit rate 1.2% among 300,000; in the data active = activation above about 30%, passing the limit was not always enough
UUG fidelity: alters start codon recognition fidelity in yeast | S. cerevisiae UUG-firefly luciferase reporter, luminescence/redox ratio | activity score, % at 18.7 µM | 350,000 compounds, 0.13% hits | AID 602363;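 active = replicate mean at a twofold rise or more, about +100% in these data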;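 note: firefly luciferase made from a UUG start codon reports start codon fidelity; reporter light over untreated wells divided by growth signal over untreated wells; some hits fall short of that in this replicate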
Each line names hits and unclear results; the compound was inactive in the other large screens; [ ] = remark or other dose.

COCC(=O)Nc1ccc2c(c1)C(=O)N(C)C[C@H](OC)[C@H](C)CN(C(=O)c1ccccn1)[C@@H](C)CO2	none (no result: MITF TRPM1 HTS, miR122 inh, Wnt act)
C(=N\n1cnnc1)/c1ccc(OCc2cccc3ccccc23)cc1	none (no result: esBAF inh, Wnt act)
C(=N\n1cnnc1)/c1cccc(OCCOc2ccccc2)c1	none (no result: Wnt act)
Fc1ccccc1COc1ccc(/C=N/n2cnnc2)cc1	Wnt act 36.8 (no result: MITF TRPM1 HTS)
C(=N\n1cnnc1)/c1ccccc1OCCOc1ccccc1	esBAF inh 61.3
COc1ccc(S(=O)(=O)N(C)C[C@@H]2Oc3ccc(NS(=O)(=O)c4ccc(F)cc4)cc3C(=O)N([C@H](C)CO)C[C@@H]2C)cc1	none (no result: MITF TRPM1 HTS, Wnt act)
C[C@@H]1CN([C@@H](C)CO)C(=O)c2cccc(NC(=O)c3ccncc3)c2O[C@@H]1CN(C)Cc1ccc(Oc2ccccc2)cc1	none (no result: MITF TRPM1 HTS, Wnt act)
COc1ccc(CN(C)C[C@H]2Oc3c(NC(=O)NC(C)C)cccc3C(=O)N([C@@H](C)CO)C[C@H]2C)cc1	PglD DTNB 16.3 (no result: MITF TRPM1 HTS, Wnt act)
C[C@H](CO)N1C[C@H](C)[C@@H](CN(C)Cc2ccc(Oc3ccccc3)cc2)Oc2c(NC(=O)c3ccncc3)cccc2C1=O	miR122 inh 110.9[16.7 µM]
COc1ccc(CN(C)C[C@H]2Oc3c(NC(=O)NC(C)C)cccc3C(=O)N([C@@H](C)CO)C[C@@H]2C)cc1	none (no result: MITF TRPM1 HTS, Wnt act)
C[C@@H]1CN([C@@H](C)CO)C(=O)c2cccc(NC(=O)C3CCOCC3)c2O[C@H]1CN(C)Cc1ccc(Oc2ccccc2)cc1	none (no result: MITF TRPM1 HTS, Wnt act)
C[C@H](CO)N1C[C@H](C)[C@@H](CN(C)Cc2ccc(Oc3ccccc3)cc2)Oc2c(NC(=O)C3CCOCC3)cccc2C1=O	miR122 inh 100.0[16.7 µM] (no result: MITF TRPM1 HTS, Wnt act)
COc1ccc(CNC(=O)N(C)C[C@@H]2OCc3ccccc3-c3c(n(C)c4ccccc34)C(=O)N([C@H](C)CO)C[C@@H]2C)cc1	esBAF inh 46.0 (no result: MITF TRPM1 HTS, miR122 inh, Wnt act, UUG fidelity)
CCC(=O)N1C[C@H](C)[C@H](OC)CN(C)C(=O)c2ccc(NC(=O)COC)cc2OC[C@@H]1C	none (no result: MITF TRPM1 HTS, Wnt act)
C[C@@H]1CN([C@@H](C)CO)C(=O)c2cc(NS(=O)(=O)c3cccs3)ccc2O[C@@H](C)CCCCO[C@@H]1CN(C)S(=O)(=O)c1ccccc1	none (no result: MITF TRPM1 HTS, Wnt act)
CCCNC(=O)NC[C@@H]1[C@@H](c2ccc(C3=CCCC3)cc2)[C@H](CO)N1C(=O)CC	miR122 inh 342.9[16.7 µM] (no result: MITF TRPM1 HTS, Wnt act)
CCC(=O)Nc1cc(=O)[nH]c2nc(-c3ccc(Cl)cc3)nn12	Wnt act 39.3
O=C(C[C@@H]1C=C[C@H](NC(=O)c2ccccn2)[C@@H](CO)O1)NCc1cccc(F)c1	none (no result: MITF TRPM1 HTS, miR122 inh, Wnt act)
Cc1ccc(CN2CCSc3ccc(C(=O)NCc4cccnc4)cc32)cc1	miR122 inh 155.4 (no result: esBAF inh)
CC(=O)N(C)C[C@H]1Oc2cc(C#CC3CCCC3)ccc2S(=O)(=O)N([C@@H](C)CO)C[C@H]1C	none (no result: MITF TRPM1 HTS, Wnt act)
O=C1c2ccccc2C(=O)N1CCSc1ccccc1	esBAF inh 50.0 (no result: MITF TRPM1 HTS, Wnt act)
COc1ccc(NC(=O)N(C)C[C@@H]2Oc3ccc(NC(=O)Nc4ccccc4)cc3C(=O)N([C@@H](C)CO)C[C@@H]2C)cc1	none (no result: MITF TRPM1 HTS, Wnt act)
O=C(CSCC(=O)Nc1nc(-c2ccc3c(c2)OCO3)cs1)Nc1nccs1	esBAF inh 44.5
O=C(Nc1nc(-c2ccc3c(c2)OCO3)cs1)C1CC1	MITF TRPM1 HTS 92.6
C[C@H]1CN([C@@H](C)CO)C(=O)CCCn2cc(nn2)CO[C@@H]1CN(C)CC1CCCCC1	none (no result: MITF TRPM1 HTS, Wnt act)
CSCC[C@H](NC(=O)[C@@H]1Cc2ccccc2CN1)C(=O)NC[C@H]1CC[C@H](C(=O)O)CC1	MITF TRPM1 HTS 92.3
CSCC[C@H](NC(=O)[C@@H]1Cc2ccccc2CN1)C(=O)NC1CCCCC1	none (no result: PglD DTNB, esBAF inh, miR122 inh, UUG fidelity)
COc1ccc(OC)c(S(=O)(=O)Nc2cc(OC)c(Cl)cc2OC)c1	none (no result: Wnt act)
COc1cc(NS(=O)(=O)c2ccc(OC)c(C)c2C)c(OC)cc1Cl	miR122 inh 271.6 (no result: esBAF inh, Wnt act)
